Laboratory results from patent US20090076009A1, “THIAZOLE DERIVATIVES AND THEIR USE AS ANTI-TUMOUR AGENTS” (priority 2006, published 2009).
pIC50: −log10 of the molar value.

Amino acid sequences for entries named in this document (tags omitted). Residues count along the entry.
UniProt P42336, whole entry: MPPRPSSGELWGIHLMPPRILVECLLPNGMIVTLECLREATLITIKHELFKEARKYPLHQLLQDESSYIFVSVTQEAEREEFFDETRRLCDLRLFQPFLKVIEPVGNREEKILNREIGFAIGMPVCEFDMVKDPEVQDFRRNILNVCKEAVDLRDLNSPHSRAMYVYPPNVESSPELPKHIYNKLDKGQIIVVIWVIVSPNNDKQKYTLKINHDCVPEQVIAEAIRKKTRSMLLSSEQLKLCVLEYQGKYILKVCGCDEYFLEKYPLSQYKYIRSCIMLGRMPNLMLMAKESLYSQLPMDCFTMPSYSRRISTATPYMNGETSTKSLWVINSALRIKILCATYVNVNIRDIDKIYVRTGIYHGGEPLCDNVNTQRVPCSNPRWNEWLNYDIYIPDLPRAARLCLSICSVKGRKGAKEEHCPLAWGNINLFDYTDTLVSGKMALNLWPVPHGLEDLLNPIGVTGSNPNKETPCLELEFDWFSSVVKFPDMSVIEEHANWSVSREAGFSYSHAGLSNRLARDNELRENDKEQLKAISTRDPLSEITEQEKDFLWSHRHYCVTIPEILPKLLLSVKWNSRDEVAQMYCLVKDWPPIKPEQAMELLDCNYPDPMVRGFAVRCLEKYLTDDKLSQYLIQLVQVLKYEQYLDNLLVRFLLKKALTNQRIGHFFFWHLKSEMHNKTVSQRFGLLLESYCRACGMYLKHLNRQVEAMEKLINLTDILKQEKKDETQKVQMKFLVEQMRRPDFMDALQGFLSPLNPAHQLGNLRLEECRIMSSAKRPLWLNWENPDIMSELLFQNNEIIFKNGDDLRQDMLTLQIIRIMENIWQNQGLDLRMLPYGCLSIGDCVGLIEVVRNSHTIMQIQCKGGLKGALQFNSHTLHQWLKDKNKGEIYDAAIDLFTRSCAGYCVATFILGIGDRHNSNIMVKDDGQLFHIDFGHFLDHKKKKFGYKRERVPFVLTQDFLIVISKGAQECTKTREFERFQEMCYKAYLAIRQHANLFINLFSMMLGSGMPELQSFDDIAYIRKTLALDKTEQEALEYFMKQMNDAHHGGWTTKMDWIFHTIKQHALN
UniProt P42345, 1362-2549 limits assumed: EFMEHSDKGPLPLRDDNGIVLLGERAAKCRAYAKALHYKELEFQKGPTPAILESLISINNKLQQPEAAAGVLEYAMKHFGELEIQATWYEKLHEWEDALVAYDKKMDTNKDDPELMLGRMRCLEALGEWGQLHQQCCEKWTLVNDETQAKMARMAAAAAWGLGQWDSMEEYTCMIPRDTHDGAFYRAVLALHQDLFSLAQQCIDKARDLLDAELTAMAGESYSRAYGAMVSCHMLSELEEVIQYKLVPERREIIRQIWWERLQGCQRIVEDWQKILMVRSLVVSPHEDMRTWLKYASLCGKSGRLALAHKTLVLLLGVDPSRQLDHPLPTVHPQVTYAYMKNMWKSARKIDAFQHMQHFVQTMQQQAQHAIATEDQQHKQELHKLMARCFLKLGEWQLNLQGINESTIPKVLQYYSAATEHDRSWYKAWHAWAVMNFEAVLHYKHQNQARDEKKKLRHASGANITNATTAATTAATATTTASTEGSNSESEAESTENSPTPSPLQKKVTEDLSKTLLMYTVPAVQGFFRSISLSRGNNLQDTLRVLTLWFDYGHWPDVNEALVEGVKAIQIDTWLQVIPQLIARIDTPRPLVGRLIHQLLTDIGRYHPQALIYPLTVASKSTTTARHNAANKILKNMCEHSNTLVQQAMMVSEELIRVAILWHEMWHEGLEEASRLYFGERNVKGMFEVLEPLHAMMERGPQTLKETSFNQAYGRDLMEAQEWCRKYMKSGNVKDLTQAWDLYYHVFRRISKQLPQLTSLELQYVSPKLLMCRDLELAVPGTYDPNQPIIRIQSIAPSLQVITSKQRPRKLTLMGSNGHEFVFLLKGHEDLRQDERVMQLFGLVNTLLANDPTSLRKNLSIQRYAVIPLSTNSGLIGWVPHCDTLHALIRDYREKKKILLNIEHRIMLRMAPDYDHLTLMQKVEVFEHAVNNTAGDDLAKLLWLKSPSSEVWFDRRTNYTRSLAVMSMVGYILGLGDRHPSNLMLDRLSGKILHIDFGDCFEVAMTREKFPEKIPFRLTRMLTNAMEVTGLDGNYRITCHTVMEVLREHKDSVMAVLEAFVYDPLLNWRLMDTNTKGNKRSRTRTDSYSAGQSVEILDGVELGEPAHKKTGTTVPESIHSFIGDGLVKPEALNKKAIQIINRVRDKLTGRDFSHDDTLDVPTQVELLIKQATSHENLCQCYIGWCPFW
UniProt P27986, whole entry partner: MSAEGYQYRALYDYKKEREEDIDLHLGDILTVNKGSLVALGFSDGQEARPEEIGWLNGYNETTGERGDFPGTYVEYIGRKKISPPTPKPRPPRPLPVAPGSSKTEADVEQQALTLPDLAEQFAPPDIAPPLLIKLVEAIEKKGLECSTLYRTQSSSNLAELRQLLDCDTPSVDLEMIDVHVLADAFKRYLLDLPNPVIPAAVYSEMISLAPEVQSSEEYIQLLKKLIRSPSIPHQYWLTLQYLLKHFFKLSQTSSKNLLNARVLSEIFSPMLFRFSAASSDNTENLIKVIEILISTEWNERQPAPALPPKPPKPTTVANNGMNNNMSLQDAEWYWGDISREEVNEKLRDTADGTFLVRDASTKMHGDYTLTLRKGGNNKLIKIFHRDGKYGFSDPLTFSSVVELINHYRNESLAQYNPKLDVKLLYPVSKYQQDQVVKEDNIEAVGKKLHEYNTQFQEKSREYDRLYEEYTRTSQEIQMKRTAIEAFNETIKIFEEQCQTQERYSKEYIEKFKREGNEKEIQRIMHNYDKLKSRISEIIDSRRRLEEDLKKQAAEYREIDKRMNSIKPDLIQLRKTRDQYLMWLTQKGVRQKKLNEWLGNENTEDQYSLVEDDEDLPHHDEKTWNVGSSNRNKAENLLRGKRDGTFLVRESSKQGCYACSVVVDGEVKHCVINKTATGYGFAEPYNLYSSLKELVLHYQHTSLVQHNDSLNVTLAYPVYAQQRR

How the values were obtained:
[1] = biological target: p110α Type Ia human PI3K (Homo sapiens, UniProt P42336); assay: In Vitro PI3K Enzyme Assay (AlphaScreen); type: biochemical; conditions: read-out: IC50 versus p110α Type Ia human PI3K; Test (a)
[2] = biological target: mTOR PI kinase-related kinase (Homo sapiens, UniProt P42345); assay: In Vitro mTOR PI kinase-related Kinase Assay (AlphaScreen); type: biochemical; conditions: read-out: IC50 versus mTOR PI kinase-related kinase; Test (b)
[3] = tested on: phosphorylation of Serine 473 in Akt in MDA-MB-468 human breast adenocarcinoma cell line; assay: In Vitro Phospho-Ser473 Akt Assay; type: cell-based; conditions: read-out: IC50, inhibition of phosphorylation of Serine 473 in Akt; Test (c), MDA-MB-468 cells

CC(=O)Nc1ncc(-c2cnc(Cl)c(NS(C)(=O)=O)c2)s1
pIC50 [1]: 8.00
pIC50 [2]: 8.00
pIC50 [3]: 6.00
